Counter-ions that a name gives are not always drawn.
Assay: Pharmacokinetic evaluation in beagle dogs
Assay type: in vivo
Details: male, dog, plasma, po, intragastric administration 5 mg/kg, fed, read-out: Bioavailability F
Description: Male beagle dogs were selected as the experimental animals in this study. The LC/MS/MS method was employed to quantitatively determine the plasma drug concentrations at different time points after intravenous injection or intragastric administration of the test compound, aiming to evaluate the pharmacokinetic characteristics of the compound of formula (I) of the present disclosure in beagle dogs.
Beagle dogs (male, 7 to 10 kg, Beijing Mars Biotechnology Co., Ltd.).
A clear solution of the test compound was slowly injected intravenously into beagle dogs (fed) via the peripheral vein (vehicle: […]/10% Solutol/85% H2O), or administered intragastrically to beagle dogs (fed). For intravenous administration, 0.5 mL of blood was collected from the peripheral vein at 0.083, 0.25, 0.5, 1, 2, 4, 6, 8, and 24 h after administration, placed in EDTA-2K anticoagulant tubes, and centrifuged at 3200 g for 10 minutes at 2 to 8° C. to separate the supernatant. […] Plasma drug concentrations were determined by the LC-MS/MS method, and relevant pharmacokinetic parameters were calculated using Phoenix WinNonlin 6.3 pharmacokinetic software with non-compartmental model linear-log trapezoidal method.

For `O=C1CCC(c2noc3ccc4c(NC(=O)CN5CCN(C[C@H]6CC[C@H](n7cc(NC(=O)c8coc(-c9ccnc(NCC%10CC%10)c9)n8)c(C(F)F)n7)CC6)CC5)cccc4c23)C(=O)N1` (stereo partly shown) [Hydrochloride of Compound of Formula (I)], the bioavailability was 72.6%.

Source: US20260265240A1, “PREPARATION METHOD FOR SALT FORM AND CRYSTAL FORM OF 2,6-PIPERIDINEDIONE COMPOUND AND USE THEREOF” (ZHANGZHOU PIEN TZE HUANG PHARMACEUTICAL CO., LTD., priority 2023, published 2026)
